The target of one assay is D(1A) dopamine receptor (Homo sapiens, UniProt P21728). Kind of assay: Displacement of [3H]SCH23390 from human dopamine D1 receptor by PDSP assay. In general terms: Displacement assays read how much labelled ligand stays bound in the presence of the test substance.
Another assay concerns the target D(1B) dopamine receptor (Homo sapiens, UniProt P21918). Kind of assay: Displacement of [3H]SCH23390 from human dopamine D5 receptor by PDSP assay.

Amino acid sequences for entries named in this document (tags omitted).
UniProt P21728, whole entry: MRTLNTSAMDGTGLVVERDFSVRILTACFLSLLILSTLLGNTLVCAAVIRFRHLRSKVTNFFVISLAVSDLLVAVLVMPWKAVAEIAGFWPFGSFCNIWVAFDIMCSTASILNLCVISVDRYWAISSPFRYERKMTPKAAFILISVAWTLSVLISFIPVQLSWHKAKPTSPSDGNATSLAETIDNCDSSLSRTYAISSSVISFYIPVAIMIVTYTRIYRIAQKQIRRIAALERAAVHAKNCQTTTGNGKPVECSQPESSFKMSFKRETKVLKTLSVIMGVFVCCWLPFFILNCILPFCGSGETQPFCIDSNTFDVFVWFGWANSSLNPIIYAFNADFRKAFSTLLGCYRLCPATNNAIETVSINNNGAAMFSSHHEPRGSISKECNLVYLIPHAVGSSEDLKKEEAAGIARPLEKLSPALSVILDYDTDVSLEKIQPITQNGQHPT
UniProt P21918, whole entry: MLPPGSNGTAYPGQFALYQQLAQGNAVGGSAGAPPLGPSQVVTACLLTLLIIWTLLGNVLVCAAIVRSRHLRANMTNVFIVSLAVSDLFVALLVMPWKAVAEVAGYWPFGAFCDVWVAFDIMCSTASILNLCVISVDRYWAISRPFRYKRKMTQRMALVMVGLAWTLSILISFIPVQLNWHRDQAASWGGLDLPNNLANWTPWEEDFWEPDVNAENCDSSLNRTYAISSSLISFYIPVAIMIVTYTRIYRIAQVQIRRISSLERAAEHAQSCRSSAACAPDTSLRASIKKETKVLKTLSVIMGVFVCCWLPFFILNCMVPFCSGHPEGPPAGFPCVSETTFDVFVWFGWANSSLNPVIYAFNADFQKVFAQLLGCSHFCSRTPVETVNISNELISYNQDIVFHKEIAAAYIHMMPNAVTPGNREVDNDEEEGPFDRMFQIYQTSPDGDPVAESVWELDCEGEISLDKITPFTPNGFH

As usually defined, the Ki is a measure of affinity in units of concentration, obtained from inhibition or displacement. On to `Fc1ccc(CCCCN2CCN(c3ccccn3)CC2)cc1`, for which, at D(1A) dopamine receptor, the Ki amounted to 238 nM. In other words, the sub-micromolar range.
For `Fc1ccc(OCCCN2CCN(c3ccccn3)CC2)cc1`, the Ki on D(1A) dopamine receptor was 180 nM; on D(1B) dopamine receptor it was 2390 nM.

The values are drawn from ChEMBL document CHEMBL3286287, “Identification of a new selective dopamine D4 receptor ligand” (Bioorg Med Chem, 2014).
